Results taken from BindingDB's records for doi:10.1016/j.ejmech.2017.02.004 (China Pharmaceutical University, 2017).

Assay: Substrate activity at NQO1 in human A549 cells assessed as NQO1-mediated two-electron reduction of compound by measuring cell growth inhibition treated for 24 hrs measured after 72 hrs by MTT assay

Compound: CC1(C)CCC2=C(O1)c1ccccc1C(=O)C2=O [R115 (Reactive Blue 2)]
- pIC50: 5.52

pIC50: −log10 of the molar value.
